Patent publication US20220024982A1 (Bicycle, published 2022)

Each binder was assayed against T1, MT1-MMP Hemopexin domain (PEX) (UniProt P50281 319-511) (assay: FP competition vs tracer 17-88-N006).
T1 construct: domain: Hemopexin domain (PEX); Target of the fluorescence polarisation assays; also called hemopexin of MT1-MMP; MMP14
Description: (§1) Subsequently, the non-fluorescent competitor bicyclic peptide (usually just the bicycle core sequence) is titrated, such that it displaces the fluorescent tracer from the target protein. The displacement of the tracer is measured and associated with a drop in fluorescence polarisation. The drop in fluorescence polarisation is proportional to the fraction of target protein bound with the non-fluorescent titrant, and thus is a measure of the affinity of titrant to target protein.
(§2) The raw data is fit to the analytical solution of the cubic equation that describes the equilibria between fluorescent tracer, titrant, and binding protein. The fit requires the value of the affinity of fluorescent tracer to the target protein, which can be determined separately by direct binding FP experiments (see previous section).

Going from ACEESFYPECDHCA (3 Cys linked to TATA scaffold) [17-108-02] to APPPCVRECALLFPKTCA (3 Cys linked to TATA scaffold) [17-120-09-T01], the Kd falls from 4490 nM to 53.8 nM (83-fold).

GPPPCVRECALLFPKTCA (3 Cys linked to TATA scaffold) [17-120-09-T04] and SPPPCVRECALLFPKTCA (3 Cys linked to TATA scaffold) [17-120-09-T05] are within 1.5-fold of each other in Kd: 34.1 nM for the first, 32.3 nM for the second.

NPPPCVRECALLFPKTCA (3 Cys linked to TATA scaffold) [17-120-09-T06] and EPPPCVRECALLFPKTCA (3 Cys linked to TATA scaffold) [17-120-09-T07] are within 1.5-fold of each other in Kd: 49.8 nM for the first, 48.1 nM for the second.

First: HPPPCVRECALLFPKTCA (3 Cys linked to TATA scaffold) [17-120-09-T08]
Second: APNPCVRECALLFPKTCA (3 Cys linked to TATA scaffold) [17-120-09-T09]
The Kd of the first is 2.1-fold lower: 37.5 nM for the first, 77.2 nM for the second.

APDPCVRECALLFPKTCA (3 Cys linked to TATA scaffold) [17-120-09-T10] and APLPCVRECALLFPKTCA (3 Cys linked to TATA scaffold) [17-120-09-T11] are within 1.5-fold of each other in Kd: 38.5 nM for the first, 44.2 nM for the second.

APAPCVRECALLFPKTCA (3 Cys linked to TATA scaffold) [17-120-09-T12] and APHPCVRECALLFPKTCA (3 Cys linked to TATA scaffold) [17-120-09-T13] are within 1.5-fold of each other in Kd: 62.2 nM for the first, 69.3 nM for the second.

First: SPPPCARECALLFPKTCA (3 Cys linked to TATA scaffold) [17-120-15-T02]
Second: APPPCVTECALLFPKTCA (3 Cys linked to TATA scaffold) [17-120-31-T03]
The Kd of the first is 1.8-fold higher: 76.7 nM for the first, 41.5 nM for the second. The second binds more tightly here.

SPPPCVGECALLFPKTCA (3 Cys linked to TATA scaffold) [17-120-33-T01] and APPPCVVECALLFPKTCA (3 Cys linked to TATA scaffold) [17-120-34-T01] are within 1.5-fold of each other in Kd: 77.6 nM for the first, 59.9 nM for the second.

First: APPPCVFECALLFPKTCA (3 Cys linked to TATA scaffold) [17-120-35-T01]
Second: ACSHECALLFPKTCA (3 Cys linked to TATA scaffold) [17-120-00]
The Kd of the first is 40-fold lower: 23.3 nM for the first, 923 nM for the second.

Going from ACFDECQLLFPKTCA (3 Cys linked to TATA scaffold) [17-120-01] to ACLDECKLLFPKTCA (3 Cys linked to TATA scaffold) [17-120-02], the Kd falls from 310 nM to 190 nM (1.6-fold).

First: ACLEECKLLFPKTCA (3 Cys linked to TATA scaffold) [17-120-19]
Second: ACREECMLLFPKTCA (3 Cys linked to TATA scaffold) [17-120-03]
The Kd of the first is 2-fold lower: 303 nM for the first, 604 nM for the second.

ACETECALLFPRSCA (3 Cys linked to TATA scaffold) [17-120-04] and ACDVECRLLFPRSCA (3 Cys linked to TATA scaffold) [17-120-07] are within 1.5-fold of each other in Kd: 224 nM for the first, 273 nM for the second.

Going from ACIDECRLLFPRSCA (3 Cys linked to TATA scaffold) [17-120-08] to QISPCVRECALLFPKTCA (3 Cys linked to TATA scaffold) [17-120-09-T02], the Kd falls from 258 nM to 55.2 nM (4.7-fold). The second binds more tightly here.

Going from APMPCVTECQLLFPKTCA (3 Cys linked to TATA scaffold) [17-120-10-T01] to APSPCRHECELLFPKTCA (3 Cys linked to TATA scaffold) [17-120-11-T01], the Kd rises from 132 nM to 612 nM (4.6-fold). The first binds more tightly here.

AALPCQRECALLFPKTCA (3 Cys linked to TATA scaffold) [17-120-12-T01] and ALDPCVRECTLLFPKTCA (3 Cys linked to TATA scaffold) [17-120-13-T01] are within 1.5-fold of each other in Kd: 183 nM for the first, 189 nM for the second.

ADRPCTIECALLFPKTCA (3 Cys linked to TATA scaffold) [17-120-14-T01] and ATQPCARECALLFPKTCA (3 Cys linked to TATA scaffold) [17-120-15-T01] are within 1.5-fold of each other in Kd: 148 nM for the first, 178 nM for the second.

Compared with ARHPCINECRLLFPKTCA (3 Cys linked to TATA scaffold) [17-120-16-T01], ALPPCYTECSLLFPKTCA (3 Cys linked to TATA scaffold) [17-120-17-T01] is 2.1-fold higher in Kd: 74.4 nM for the first, 157 nM for the second.

ACHEECRLLFPKTCA (3 Cys linked to TATA scaffold) [17-120-18] and ACIDECALLFPRTCA (3 Cys linked to TATA scaffold) [17-120-20] are within 1.5-fold of each other in Kd: 252 nM for the first, 248 nM for the second.

Going from APPPCYEECRLLFPRTCA (3 Cys linked to TATA scaffold) [17-120-21-T01] to APSPCVRECRLLFPKTCA (3 Cys linked to TATA scaffold) [17-120-22-T01], the Kd falls from 113 nM to 62.4 nM (1.8-fold). The second binds more tightly here.

PLPPCVRECRLLFPKTCA (3 Cys linked to TATA scaffold) [17-120-22-T02] gave a Kd of 46.1 nM.

These binders were tested against T1, MT1-MMP Hemopexin domain (PEX) (assay: FP competition vs tracer 17-69-07-N040).
Text: Here, a pre-formed complex of PEX with the fluorescent PEX-binding tracer is titrated with free, non-fluoresceinated bicyclic peptide. Since all 17-69-based peptides are expected to bind at the same site, the titrant will displace the fluorescent tracer from PEX. Dissociation of the complex can be measured quantitatively, and the Kd of the competitor (titrant) to the target protein determined. The advantage of the competition method is that the affinities of non-fluoresceinated bicyclic peptides can be determined accurately and rapidly.
as §1, §2

ACSSWDKLMCHPYCA (3 Cys linked to TATA scaffold) [17-121-00] and ACEEEFYPCGHPMHPCA (3 Cys linked to TATA scaffold) [17-126-06] are within 1.5-fold of each other in Kd: 678 nM for the first, 675 nM for the second.

First: ACEEEFYPCGHPFHPCA (3 Cys linked to TATA scaffold) [17-126-08]
Second: ACDEQFYPCHHRLYSCA (3 Cys linked to TATA scaffold) [17-126-07]
The Kd of the first is 3.6-fold higher: 711 nM for the first, 198 nM for the second. The second binds more tightly here.

Compared with ACLEQFYPCEHPLFSCA (3 Cys linked to TATA scaffold) [17-126-09], ACVEQFYPCGHRHYICA (3 Cys linked to TATA scaffold) [17-126-10] is 4.5-fold higher in Kd: 165 nM for the first, 737 nM for the second.

Compared with ACLEQFYPCGDPRLCA (3 Cys linked to TATA scaffold) [17-126-11], ACEEQFYPCGHHLLCA (3 Cys linked to TATA scaffold) [17-126-12] is 3-fold higher in Kd: 971 nM for the first, 2900 nM for the second. The first binds more tightly here.

ACEEQFYPCSHPLYTCA (3 Cys linked to TATA scaffold) [17-126-18] and ACEEQFYPCNHPLNVCA (3 Cys linked to TATA scaffold) [17-126-19] are within 1.5-fold of each other in Kd: 147 nM for the first, 199 nM for the second.

First: ACEEEFYPCSHPLNPCA (3 Cys linked to TATA scaffold) [17-126-20]
Second: ACEEQFYPCGHKLSPCA (3 Cys linked to TATA scaffold) [17-126-21]
The Kd of the first is 1.9-fold higher: 246 nM for the first, 131 nM for the second. The second binds more tightly here.

ACPEQFYPCDHRLYICA (3 Cys linked to TATA scaffold) [17-126-22] and ACQEQFYPCNHPLSPCA (3 Cys linked to TATA scaffold) [17-126-23] are within 1.5-fold of each other in Kd: 295 nM for the first, 409 nM for the second.
